# Literature values in paper PMC6402191 (Clinical and Translational Science, 2017).
# Details: ref 22 (probenecid), 23 (ibuprofen); cited from earlier work
structure (smiles),measurement,value
CCCN(CCC)S(=O)(=O)c1ccc(C(=O)O)cc1 [Probenecid],ka (first-order absorption rate constant),0.56 h^‐1
